# Measured values published in patent publication EP1205473A1, “VESAMICOL PIPERAZINE DERIVATIVES AND DRUGS CONTAINING THE SAME” (DAIICHI RADIOISOTOPE LABORATORIES, LTD., priority 1999, dated 2001).
# Sequences of proteins named here, by UniProt entry; tags and fusion partners are left off. A change or cut given only in a name is not applied to a line headed by its entry.
# UniProt Q62666: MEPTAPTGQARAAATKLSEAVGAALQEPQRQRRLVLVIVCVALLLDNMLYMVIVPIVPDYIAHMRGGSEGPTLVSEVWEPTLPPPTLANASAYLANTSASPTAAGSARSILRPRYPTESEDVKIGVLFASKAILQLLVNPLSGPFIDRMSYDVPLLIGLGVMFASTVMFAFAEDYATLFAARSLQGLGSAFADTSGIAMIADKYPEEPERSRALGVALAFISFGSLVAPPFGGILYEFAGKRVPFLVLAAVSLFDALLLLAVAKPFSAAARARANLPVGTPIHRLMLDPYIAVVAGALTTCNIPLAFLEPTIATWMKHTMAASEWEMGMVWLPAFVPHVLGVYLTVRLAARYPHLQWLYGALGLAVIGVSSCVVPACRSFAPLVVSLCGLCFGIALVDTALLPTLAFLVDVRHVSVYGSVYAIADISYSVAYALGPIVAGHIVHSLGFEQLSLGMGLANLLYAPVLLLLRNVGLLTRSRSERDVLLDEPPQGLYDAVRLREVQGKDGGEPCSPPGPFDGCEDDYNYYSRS
# Target: vesamicol receptors (Rattus norvegicus, UniProt Q62666)
# Assay: Inhibition experiment: inhibition of binding of radioactive-iodine-labeled DRC140 to P2 fractions
# Details: read-out: IC50 (nM) Average ± S.D, Table 7, Binding site names the inhibitor's own site
substance,measurement,value
"5,7-Kynurenic acid",IC50,> 5000 nM
